Source: PubChem (several laboratories)
Most compounds without a hit are left out; they make up all but 2.3% or so of the library.
CendR NRP1 mod – NRP-1/CendR interaction modulation; O14786; FAM-RPARPAR peptide binding to NRP-1, fluorescence polarization; inhibition, % at 25 µM; actives 0.85% (n = 360,000); AID 602438;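 active = inhibition or corrected inhibition above about 18%, plus a signal ratio from 0.5 to 1.5, limit read from the data, passing the limit was not always enough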
ASAP1 GAP inh – inhibitors of human ASAP1 ArfGAP activity. AID 624377. actives 0.19% (n = 360,000). inhibition, % at 16.5 µM. ASAP1-stimulated ARF1 GTP hydrolysis, GDP FP detection; in the data active = inhibition above about 25%;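 also: 0% = vehicle with enzyme and substrate and 100% = no enzyme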
MC4R ag barr – human MC4R agonism via beta-arrestin; actives 0.98% (n = 360,000); P32245; activation, % at 8.9 µM; AID 540308; U2OS MC4R beta-arrestin complementation, luminescence; percent of melanotan II response, DMSO zero;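 active = activation above a per-plate cutoff, the mean activation of sample wells on that plate plus 3 SD, cut at about 8% in these data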
ARFGAP1 inh – inhibits rat ARF GTPase activating protein 1; Q62848; Arfgap1-stimulated ARF1 GTP hydrolysis, GDP FP detection; inhibition, % at 16.5 µM; actives 0.26% (n = 360,000); AID 651572;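 active = inhibition above a per-plate limit, mean inhibition of low control wells plus 3 SD, cut at about 25% in these data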;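 also: 0% = DMSO wells with enzyme and 100% = wells lacking Arfgap1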
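Material – truncated rat Arfgap1 GAP domain · Buffer or medium – HEPES-based buffer, pH 7.5 · Reagent – human ARF1(Δ1-17)-GTP substrate · Dosing – 16.5 µM single point, 1.26% DMSO · Schedule – GTP hydrolysis reaction 2 h at 25 °C · Technique – GDP detection by fluorescence polarization · Benchmarks – No-Arfgap1 wells (100%) versus DMSO full-reaction wells (0%) · Repeats – single replicate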
MC4R antag cAMP – human MC4R antagonism in cAMP assay; P32245; MC4R-expressing cells, MTII-stimulated cAMP, LANCE TR-FRET; inhibition, % at 6.5 µM; actives 0.48% (n = 360,000); AID 540295;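 active = inhibition above its plate's cutoff, the mean of tested wells on that plate plus 3 SD, cut at about 29% in these data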;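 also: 0% = Melanotan II alone and 100% = Melanotan II plus saturating MCL0020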
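System: U2OS cells stably expressing human melanocortin 4 receptor (MC4R). Reagent: Melanotan II challenge after compound preincubation. Doses: 6.5 µM. Times: 30-min compound, 1-h challenge, 1-h detection, room temperature. Measured by: TR-FRET with Eu-cAMP and labeled anti-cAMP, 671 nm. Replicates: singlicate.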
Yeast UUG start – modulators of yeast start codon fidelity, primary screen, whole organism, S. cerevisiae, single point, plate reader. S. cerevisiae UUG-firefly luciferase reporter, luminescence/redox ratio. activity score, % at 18.7 µM. actives 0.13% (n = 350,000);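 active = replicate mean at a twofold rise or more, about +100% in these data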;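 note: firefly luciferase made from a UUG start codon reports start codon fidelity; reporter light over untreated wells divided by growth signal over untreated wells; some hits fall short of that in this replicate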
* marks the source's active call; other numbers are inactive results; . = not tested or not shown.

1	CCc1ccccc1NC(=O)c1ccccc1N1C(=O)C2C3C=CC(C3)C2C1=O (centres undefined)
2	COc1cccc(NC(=O)c2ccccc2N2C(=O)C3C4C=CC(C4)C3C2=O)c1 (centres undefined)
3	Cc1noc(C)c1S(=O)(=O)Nc1ccc2c(c1)C(=O)N([C@@H](C)CO)C[C@@H](C)[C@H](CN(C)Cc1ccncc1)OCCCC[C@@H](C)O2
4	COc1cccc2cc(-c3nc(-c4cccs4)cs3)c(=O)oc12
5	Cc1cc(C(=O)N[C@H](c2ccccc2)[C@@]2(C)C[C@@H]2[C@@H](C)C(=O)Nc2ccc3ccccc3c2)no1
6	Cc1cc(C(=O)N[C@@H](c2ccccc2)[C@]2(C)C[C@H]2[C@@H](C)C(=O)Nc2ccc3ccccc3c2)no1

assay / compound	1	2	3	4	5	6
Yeast UUG start	-13.3	5.4	-5.5	-8.7	-8.3	-4.9
ARFGAP1 inh	4.2	-3.3	.	3.2	17.8	-0.9
MC4R ag barr	-1.5	-1.5	.	3.2	-0.3	-3.6
ASAP1 GAP inh	2.9	6.2	.	-9.6	8.8	1.7
CendR NRP1 mod	22.5*	-3.5	.	47.1*	16.5	21.7*
MC4R antag cAMP	0.2	3.1	.	6.5	15.1	1.4

7	COc1ccccc1S(=O)(=O)N[C@@H]1CC[C@@H](CCNC(=O)C2CCCCC2)O[C@H]1CO
8	C=CCN1C(=O)/C(=C2/Sc3ccccc3N2CC)SC1=S
9	Cc1noc(C)c1NC(=O)N(C)C[C@H]1OCCCC[C@H](C)Oc2ccc(NC(=O)CCC(F)(F)F)cc2C(=O)N([C@@H](C)CO)C[C@@H]1C
10	Cc1noc(C)c1NC(=O)N(C)C[C@H]1Oc2ccc(NC(=O)Nc3cccc4ccccc34)cc2C(=O)N([C@H](C)CO)C[C@H]1C
11	C[C@H]1CN([C@@H](C)CO)C(=O)c2cccc(NC(=O)C3CC3)c2O[C@H]1CN(C)C(=O)NC1CCCCC1
12	COc1ccc(C2CC(c3ccccc3)n3nc(NC(=O)c4cccs4)nc3N2)cc1 (centres undefined)

assay / compound	7	8	9	10	11	12
Yeast UUG start	9.4	-2.2	1.8	-18.7	-1.2	-22.7
ARFGAP1 inh	.	-7.7	.	.	.	-4.2
MC4R ag barr	.	0.4	.	.	.	1.9
ASAP1 GAP inh	.	1.1	.	.	.	12.6
CendR NRP1 mod	.	77.2*	.	.	.	1.8
MC4R antag cAMP	.	2.7	.	.	.	11.1

13	COc1ccc(C2CC(c3ccccc3)Nc3nc(NC(=O)c4cccs4)nn32)cc1 (centres undefined)
14	C[C@@H]1CN([C@H](C)CO)C(=O)Cc2cc(NC(=O)C3CC3)ccc2O[C@H]1CN(C)CC1CC1
15	CO[C@H]1CN(C)C(=O)c2cc(NC(C)=O)ccc2OC[C@@H](C)N(CCC(F)(F)F)C[C@@H]1C
16	O=C(C[C@@H]1CC[C@@H]2[C@H](COC[C@H](O)CN2S(=O)(=O)c2ccccc2)O1)NCc1ccc2c(c1)OCO2
17	COc1ccc(OC)c(Nc2nc(-c3ccncc3)nc3ccccc23)c1
18	Cc1ccc(S(=O)(=O)N(C)C[C@@H]2Oc3ccc(NC(=O)CCCN(C)C)cc3C(=O)N([C@@H](C)CO)C[C@@H]2C)cc1

assay / compound	13	14	15	16	17	18
Yeast UUG start	-26.5	-6.9	11.2	16.8	-6.8	14.5
ARFGAP1 inh	2.9	.	.	.	7.3	.
MC4R ag barr	-0.2	.	.	.	12.6*	.
ASAP1 GAP inh	-12.6	.	.	.	8.1	.
CendR NRP1 mod	31.4*	.	.	.	4.8	.
MC4R antag cAMP	3.9	.	.	.	11.4	.

19	COc1ccc(NC(=O)N(C)C[C@H]2Oc3ccc(NC(=O)NC4CCCCC4)cc3CC(=O)N([C@H](C)CO)C[C@H]2C)cc1
20	CC1CCCCN1S(=O)(=O)c1ccc(N(C(=O)c2cnccn2)C(C(=O)NC2CCCC2)c2cccs2)cc1 (centres undefined)
21	CC1CCCCN1S(=O)(=O)c1ccc(N(C(=O)c2cnccn2)C(C(=O)NC2CCCCC2)c2cccs2)cc1 (centres undefined)
22	CCOc1cc(NC(=S)NC)c(OCC)cc1NC(=O)c1ccc(OC)cc1
23	CCOc1cc(NC(=S)NCC2CCCO2)c(OCC)cc1NC(=O)c1ccc(OC)cc1 (centres undefined)
24	O=C(CN(C(=O)CCC(=O)Nc1ccccn1)c1ccc2c(c1)OCO2)NCc1ccco1

assay / compound	19	20	21	22	23	24
Yeast UUG start	-6.2	.	.	-14.1	.	5.8
ARFGAP1 inh	.	-10.5	-2.0	5.4	-2.2	-0.5
MC4R ag barr	.	-1.8	-1.9	-3.2	-0.9	-2.1
ASAP1 GAP inh	.	5.3	-6.3	6.5	-7.2	-4.0
CendR NRP1 mod	.	-2.3	28.4*	20.6*	-8.3	21.6*
MC4R antag cAMP	.	-0.8	-4.2	8.8	6.7	-6.1

25	Cc1ccc(N(CC(=O)NCc2ccco2)C(=O)CCC(=O)Nc2ccccn2)cc1C
26	Cn1c(-c2ccc(F)c(F)c2)cc2onc(-c3ccccc3)c2c1=O
27	COc1cccc(-c2cc3onc(-c4ccccc4)c3c(=O)n2C)c1
28	O=C(Nc1ccc(F)cc1)N[C@H]1CC[C@H](CC(=O)N2CCCCC2)O[C@H]1CO
29	Clc1ccc(N=c2ssnc2Cl)cc1
30	Fc1ccc(N=c2ssnc2Cl)c(F)c1

assay / compound	25	26	27	28	29	30
Yeast UUG start	-14.0	-18.9	-9.2	-6.7	-30.4	.
ARFGAP1 inh	-2.4	-13.5	-5.1	.	9.8	1.9
MC4R ag barr	-0.9	-0.7	-2.3	.	-1.9	1.9
ASAP1 GAP inh	1.3	2.2	-10.4	.	3.0	-6.3
CendR NRP1 mod	-0.7	17.7	17.9*	.	-2.6	-7.8
MC4R antag cAMP	4.4	7.4	5.6	.	0.3	28.6*

31	Cc1ccccc1-c1cnc(C(O)c2ccc(F)c(F)c2)[nH]1 (centres undefined)
32	Cc1cc(NC(=O)COC(=O)c2cccc(OCc3ccccc3)c2)no1
33	Cc1cc(NC(=O)COC(=O)c2ccc(C)c(C)c2)no1
34	Cc1cc(NC(=O)COC(=O)c2ccc(OC(F)(F)F)cc2)no1
35	CNC[C@@H]1Oc2cc(C#Cc3ccccc3F)ccc2S(=O)(=O)N([C@@H](C)CO)C[C@H]1C
36	CCn1nc(C(=O)Nc2ccc(C)c(C)c2)c(Cl)c1Cl

assay / compound	31	32	33	34	35	36
Yeast UUG start	.	-7.2	-11.3	-17.9	4.8	-19.2
ARFGAP1 inh	4.7	1.8	-6.5	-5.5	.	1.4
MC4R ag barr	-1.9	8.5*	-1.7	4.3	.	8.7*
ASAP1 GAP inh	10.0	-4.0	5.0	10.3	.	-1.1
CendR NRP1 mod	23.1*	7.2	26.4*	2.9	.	3.9
MC4R antag cAMP	5.4	-4.5	-3.3	-6.3	.	3.1

37	C[C@H](CO)N1C[C@H](C)[C@H](CN(C)Cc2ccncc2)Oc2cc(Br)ccc2S1(=O)=O
38	CN(CC(=O)NCc1ccc(F)cc1)CC(=O)Nc1ccc(Cl)c(C(F)(F)F)c1
39	COc1ccc(NC(=S)NNC(=O)CCn2cc([N+](=O)[O-])cn2)cc1
40	COc1ccc(NC(=O)CCCn2cc([N+](=O)[O-])cn2)cc1
41	C[C@H]1CCCCO[C@H](CN(C)S(=O)(=O)c2cn(C)cn2)[C@@H](C)CN([C@@H](C)CO)C(=O)c2cc(NC(=O)Nc3ccc4c(c3)OCO4)ccc2O1
42	COc1cccc(-c2noc(-c3ccc(Cl)nc3)n2)c1
43	COc1cccc(-c2nc(-c3ccc(C(=O)O)cc3)no2)c1

assay / compound	37	38	39	40	41	42	43
Yeast UUG start	1.8	6.6	.	.	16.7	.	-70.6
ARFGAP1 inh	.	16.7	11.7	0.2	.	-4.7	8.9
MC4R ag barr	.	9.0*	2.6	-1.5	.	8.7*	-0.6
ASAP1 GAP inh	.	4.7	5.8	10.7	.	-6.3	-3.0
CendR NRP1 mod	.	3.0	30.3*	2.6	.	-6.1	5.3
MC4R antag cAMP	.	8.6	-1.9	6.8	.	-9.5	2.1

Three compounds out of the list above, ordered by the number in ASAP1 GAP inh, ascending:
item | compound | Yeast UUG start | ARFGAP1 inh | MC4R ag barr | ASAP1 GAP inh | CendR NRP1 mod | MC4R antag cAMP
42 | COc1cccc(-c2noc(-c3ccc(Cl)nc3)n2)c1 | . | -4.7 | 8.7* | -6.3 | -6.1 | -9.5
43 | COc1cccc(-c2nc(-c3ccc(C(=O)O)cc3)no2)c1 | -70.6 | 8.9 | -0.6 | -3.0 | 5.3 | 2.1
40 | COc1ccc(NC(=O)CCCn2cc([N+](=O)[O-])cn2)cc1 | . | 0.2 | -1.5 | 10.7 | 2.6 | 6.8
